Experimental data taken from patent US8168592B2 (Amgen Inc., priority 2005, dated 2012).

Sequences of proteins named here, by UniProt entry; tags and fusion partners are left off. Residues count along the entry.
UniProt Q63118, 24-464: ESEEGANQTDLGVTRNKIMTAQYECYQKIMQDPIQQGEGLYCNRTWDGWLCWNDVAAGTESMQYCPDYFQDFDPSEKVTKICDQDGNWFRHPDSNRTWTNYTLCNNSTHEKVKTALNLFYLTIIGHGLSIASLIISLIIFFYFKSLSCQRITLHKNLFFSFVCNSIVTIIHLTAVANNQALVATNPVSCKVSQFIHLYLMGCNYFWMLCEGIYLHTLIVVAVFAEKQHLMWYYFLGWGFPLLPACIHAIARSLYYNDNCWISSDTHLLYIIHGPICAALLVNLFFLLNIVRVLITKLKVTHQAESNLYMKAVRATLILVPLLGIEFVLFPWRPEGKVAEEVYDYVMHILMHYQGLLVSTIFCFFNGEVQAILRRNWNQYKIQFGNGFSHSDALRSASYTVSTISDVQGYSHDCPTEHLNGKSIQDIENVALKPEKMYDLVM
UniProt Q9JJ74, 27-148: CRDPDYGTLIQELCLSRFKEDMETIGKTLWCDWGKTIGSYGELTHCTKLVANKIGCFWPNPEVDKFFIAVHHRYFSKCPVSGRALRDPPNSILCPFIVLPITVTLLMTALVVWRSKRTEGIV

Experiments:
[1] = cited from earlier work
CGRP1 receptor = molecular target: T1, CGRP1 receptor (Rattus norvegicus, UniProt Q63118+Q9JJ74); experiment: laser Doppler blood flowmetry assay (hαCGRP-induced skin blood flow); assay type: in vivo; conditions: intradermal injection in abdominal skin
T1 construct: intradermal injection of hCGRP within a small, defined area of abdominal skin produced a 30-40% increase in local blood flow; from tissue; host or cells: living anaesthetised rat, abdominal skin
Method: Methods. An automated laser Doppler blood flowmetry device is used (MoorLDI®; Moor Instrument, Devon, UK). The device was turned on prior to the start of experiments and allowed to warm up for 20 minutes. Blood flow data (in FLUX) were read from software records (see below).
For each rat, the experimental procedure was performed within a single day and was each rat was sacrificed on the same day immediately after the experiment was over. On an experiment day, each rat was weighed and administered 1 ml/kg (intramuscular injection in right leg) of an anesthetic cocktail consisting of Ketamine, Xylazine and PBS (5:3:2). […] The animal was then ready for the experiment.
Approximately 20 min after the injection of the anesthetic cocktail, baseline blood flow readings were collected for each animal. […]
After completion of baseline scanning, the rat was removed from the device. […] After a pre-determined interval, based on pharmacokinetic characteristics of the relevant CGRP peptide antagonist, agonist (human αCGRP; 0.1 μg, 50 μL; interdermal) was injected such that the point of entry of the needle (30 gauge) was remote from the marker dot but the intradermal injection bolus was centered under the dot. […]
In some cases, plasma IC50 values were calculated by performing least squares linear regression on log plasma concentration values (nM) vs. % change in blood flow values calculated for individual rats.

Substance: CGRP: native CGRP peptide
- half-life in mammalian plasma [1]: about 10 min

Substance: hCGRP: agonist, native human αCGRP [reference compound]
- increase in local blood flow (CGRP1 receptor): 30-40%
